{"source": "patent US20120302748A1", "about": "“TREATMENT OR PROPHYLAXIS OF PROLIFERATIVE CONDITIONS” (THE UNIVERSITY COURT OF THE UNIVERSITY OF DUNDEE, priority 2009, published 2012)", "origin": "cited, not measured here", "molecular_target": "T1, CYP1B1 (Homo sapiens, UniProt Q16678)", "T1 sequence (Q16678 1-543)": "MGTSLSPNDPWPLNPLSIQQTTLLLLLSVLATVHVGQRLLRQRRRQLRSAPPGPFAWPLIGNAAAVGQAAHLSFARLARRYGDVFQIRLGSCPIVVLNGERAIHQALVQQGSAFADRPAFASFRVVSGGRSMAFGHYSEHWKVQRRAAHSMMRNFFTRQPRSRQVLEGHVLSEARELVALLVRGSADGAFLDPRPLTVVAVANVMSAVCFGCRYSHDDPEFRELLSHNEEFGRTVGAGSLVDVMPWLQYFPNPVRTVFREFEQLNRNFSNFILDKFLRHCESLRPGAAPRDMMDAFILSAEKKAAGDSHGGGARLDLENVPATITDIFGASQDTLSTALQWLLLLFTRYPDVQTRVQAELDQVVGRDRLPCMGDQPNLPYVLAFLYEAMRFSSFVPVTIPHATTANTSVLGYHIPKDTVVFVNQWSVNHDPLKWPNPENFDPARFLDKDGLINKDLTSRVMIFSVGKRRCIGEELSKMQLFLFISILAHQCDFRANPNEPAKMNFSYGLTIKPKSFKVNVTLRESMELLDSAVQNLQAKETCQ", "details": "cited from earlier work", "data": [{"substance": "tetramethoxystilbene", "values": [{"measurement": "IC50", "value": 6, "unit": "nM"}]}]}
